Source: patent US7776897B2, “Triazole derivative or salt thereof” (Astellas Pharma Inc., priority 2004, dated 2010)

By UniProt entry, the sequences of proteins in these tests, tags left out.
UniProt P28845, whole entry: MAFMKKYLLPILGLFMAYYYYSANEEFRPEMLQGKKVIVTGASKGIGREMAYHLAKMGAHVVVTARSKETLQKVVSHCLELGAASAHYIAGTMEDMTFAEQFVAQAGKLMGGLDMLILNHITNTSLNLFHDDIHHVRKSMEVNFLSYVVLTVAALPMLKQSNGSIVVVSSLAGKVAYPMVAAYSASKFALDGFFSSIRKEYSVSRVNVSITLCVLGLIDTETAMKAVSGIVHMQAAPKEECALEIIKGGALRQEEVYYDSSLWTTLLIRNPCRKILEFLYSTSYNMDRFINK
UniProt P80365, whole entry: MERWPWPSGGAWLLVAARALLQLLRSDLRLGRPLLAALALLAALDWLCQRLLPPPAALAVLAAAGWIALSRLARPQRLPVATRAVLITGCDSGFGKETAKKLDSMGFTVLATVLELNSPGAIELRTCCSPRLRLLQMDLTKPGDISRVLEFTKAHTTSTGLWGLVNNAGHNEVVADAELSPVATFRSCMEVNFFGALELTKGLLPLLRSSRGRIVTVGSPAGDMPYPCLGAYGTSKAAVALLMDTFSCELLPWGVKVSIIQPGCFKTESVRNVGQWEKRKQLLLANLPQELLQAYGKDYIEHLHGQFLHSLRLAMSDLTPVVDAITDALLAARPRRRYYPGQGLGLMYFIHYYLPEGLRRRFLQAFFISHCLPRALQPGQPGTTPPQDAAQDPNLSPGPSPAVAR

Assays:
[1] = target: human recombinant 11β-HSD1 (Homo sapiens, UniProt P28845); assay: Test for measuring human 11β-HSD1 inhibitory activity (HTRF cortisol detection); conditions: read-out: Human 11β-HSD1 (IC50/μM); human recombinant enzyme, 200 nM cortisone, 40 μM NADPH, pH 6.6, room temperature 1 hour; average of 3 wells
Protocol: (§1) (1) Test for Measuring Human 11β-HSD1/11β-HSD2 Inhibitory Activity
(§2) The procedure for measuring human 11β-HSD1/11β-HSD2 inhibitory activity is as follows. The enzymatic reaction and measurement were performed using a 384-well plate. The reaction was carried out by adding a test compound in various concentrations to a reaction solution containing a 10 mM phosphate buffer solution (pH 6.6), 200 nM cortisone, 40 μM reduced nicotinamide adenine dinucleotide phosphate (NADPH), and human recombinant 11β-HSD1 and then incubating the mixture at room temperature for 1 hour (10 μl/well). The test compound was dissolved in dimethyl sulfoxide (DMSO) to prepare a sample so that the DMSO concentration in the reaction solution became 1%. After the enzymatic reaction, an enzymatic inhibitory activity was measured by detecting cortisol using homogeneous time-resolved fluorescence (HTRF). […] Then, fluorescence intensity was measured using a fluorophotometer (product name: Discovery, PerkinElmer) and an enzymatic inhibitory activity was calculated based on two-wavelength fluorescence intensity ratio (665 nm/620 nm).
(§3) The results of the measurement were calculated as an average of the values for 3 wells obtained under the same conditions.

[2] = target: human recombinant 11β-HSD2 (Homo sapiens, UniProt P80365); assay: Test for measuring human 11β-HSD2 inhibitory activity (HTRF cortisol detection); conditions: read-out: Human 11β-HSD2 (IC50/μM); human recombinant enzyme, 200 nM cortisol, 200 μM NAD, pH 8.0, 37° C. 2 hours; average of 3 wells
Protocol: as §1
as §2, with “nm). […]” for “nm).”
as §3

**Q.** Which results are given for CC(C)(c1ccc(Cl)s1)c1nnc2n1CCCCCC2?
**A.** IC50 [1]: 0.0052 µM; IC50 [2]: > 1 µM
